These are literature values, as cited in patent EP4834326A1, “SOLUTION-TYPE QUETIAPINE COMPOSITION FOR TRANSNASAL ADMINISTRATION AND USE THEREOF” (dated 2026).

The conditions of the data set: oral.

Regarding `OCCOCCN1CCN(C2=Nc3ccccc3Sc3ccccc32)CC1`, the bioavailability result is recorded as “about 10%”.
